Test results as given in patent US20240002326A1, “COMPOUNDS AND USE THEREOF IN METHODS OF TREATMENT” (The University of Queensland, priority 2016, published 2024).

Protein sequences, listed by entry. Tags and fused reporters are not part of them. Residues count along the entry.
UniProt P40645, 620-688 limits assumed: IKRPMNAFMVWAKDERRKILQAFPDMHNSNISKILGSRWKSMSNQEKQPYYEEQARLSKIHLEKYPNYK

Assays:
SOX6 HMG fragment = SOX6 HMG fragment (Mus musculus (Mouse), UniProt P40645); assay: FP DNA-binding competition assay, SOX6 HMG fragment; details: read-out: DNA-binding inhibition IC50, SOX6 HMG; HMG only fragment
Protocol: Mouse SOX HMG fragments. The HMG domains of mouse SOX2 (Group B), SOX11 (Group C), SOX6 (Group D), SOX9 (Group E), SOX18 (Group F) and SOX15 (Group G) were BP cloned from cDNA templates (IMAGE cDNA clone IDs: Sox18: 3967084; Sox9: 5354229; Sox4: 6822618) into a pDONRTM221 pENTRY vector, sequenced and recombined into a pETG20A or a pHisMBP expression plasmid using Gateway®LR Technology (Ng et al., 2012). Constructs were transformed into Escherichia coli BL21(DE3) cells (Luria-Bertani, 100 μg/ml Ampicillin).
The DNA-binding competition assay was performed in black 384-well plates, with mouse full length SOX18, or SOX-HMG fragments. All experiments were performed using a fluorescently-labelled Prox1-DNA element. […]
The DNA-binding competition assay was performed in 25 uL, in black 384-well plates, using either 30 mM HEPES (N-2-Hydroxyethylpiperazine-N′-2-Ethanesulfonic Acid) (pH 7.5, with 100 mM KCl, 40 mM NaCl, 10 mM NH4OAc, […], 2 mM MgCl2, 0.5 mM EDTA, 0.01% NP-40) for mouse full length SOX18, or Tris-NaCl (10 mM Tris pH 8.0 and 100 mM NaCl) for SOX-HMG fragments. […] After mixing protein, DNA probe and compound, plates were sealed and briskly agitated in the dark for 5 minutes at room temperature, 10 minutes at 37° C., and 30 minutes at room temperature, before reading fluorescence polarization on a Tecan M1000Pro (λexc=485 nm, λem=525 nm). […]

Nicotinic Acetylcholine = assay: Off-target radioligand binding, Nicotinic Acetylcholine; details: Human

O=C(O)c1c(O)cccc1CCc1ccc2ccccc2c1
IC50 (SOX6 HMG fragment): 270 to 310 µM | Inhibition at 10 μM (%) (Nicotinic Acetylcholine): 3%
